In patent US20250034239A1:

Target: complement protein C5 (in human serum) (human) (UniProt P01031)
Test: cell-based or functional assay

In the case of “Eculizumab (Targetmol, T9915) (antibody)”, the IC50, alternative pathway hemolysis in human serum is reported as 0.05 µM, the IC50, classical pathway hemolysis in human serum is reported as 0.057 µM and the IC50, lectin pathway hemolysis in human serum is reported as 0.045 µM.
